Where two headings read alike, the source gives them in different places. Values belong to the compound of their own block, whether it stands above or below them.
Key:
[1] = biological target: cyclin D2-Cdk4 (Homo sapiens, UniProt P11802); assay: Enzyme assay of cyclin D2-Cdk4 (33P-ATP phosphorylation of RB peptide substrate); format: biochemical; conditions: read-out: IC50(μM) cyclin D1-Cdk4, Table 1, second value column (head repeats cyclin D1-Cdk4), 50 μM ATP, 100 μM peptide substrate, 30° C., 45 min
[2] = biological target: cyclin D1-Cdk6 (Homo sapiens, UniProt Q00534); assay: Enzyme assay of cyclin D1-Cdk6 (33P-ATP phosphorylation of peptide substrate); conditions: read-out: IC50(μM) cyclin D1-Cdk6, 400 μM peptide substrate, 50 μM ATP, 30° C.
[3] = biological target: cyclin D3-Cdk6 (Homo sapiens, UniProt Q00534); assay: Enzyme assay of cyclin D3-Cdk6 (33P-ATP phosphorylation of peptide substrate); conditions: read-out: IC50(μM) cyclin D3-Cdk6; 100 μM peptide substrate, 50 μM ATP, 30° C.
[4] = biological target: cyclin D1-Cdk4 (Homo sapiens, UniProt P11802); assay: Enzyme assay of cyclin D1-Cdk4 (33P-ATP phosphorylation of RB peptide substrate); format: biochemical; conditions: read-out: IC50(μM) cyclin D1-Cdk4; Table 1, first value column; 50 μM ATP, 100 μM peptide substrate, 30° C., 45 min
[5] = system: MKN-1 cells; assay: Activity of inhibiting cell growth, MKN-1 (sulforhodamine B); conditions: read-out: IC50(μM) MKN-1 Cell, cell growth inhibition, 3 days incubation
[6] = system: HCT116 cells; assay: Activity of inhibiting cell growth, HCT116 (sulforhodamine B); conditions: read-out: IC50(μM) HCT116 Cell, cell growth inhibition, 3 days incubation

The chains behind the UniProt entries cited, without tags or fusion partners.
UniProt P11802, whole entry: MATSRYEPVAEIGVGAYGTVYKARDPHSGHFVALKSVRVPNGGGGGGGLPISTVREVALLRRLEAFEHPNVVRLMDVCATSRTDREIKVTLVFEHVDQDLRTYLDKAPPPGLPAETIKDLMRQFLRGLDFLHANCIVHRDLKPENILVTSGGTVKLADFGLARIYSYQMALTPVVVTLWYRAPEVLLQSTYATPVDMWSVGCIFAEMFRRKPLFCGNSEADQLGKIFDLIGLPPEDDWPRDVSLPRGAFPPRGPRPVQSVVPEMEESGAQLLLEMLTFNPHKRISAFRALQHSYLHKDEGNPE
UniProt Q00534, whole entry: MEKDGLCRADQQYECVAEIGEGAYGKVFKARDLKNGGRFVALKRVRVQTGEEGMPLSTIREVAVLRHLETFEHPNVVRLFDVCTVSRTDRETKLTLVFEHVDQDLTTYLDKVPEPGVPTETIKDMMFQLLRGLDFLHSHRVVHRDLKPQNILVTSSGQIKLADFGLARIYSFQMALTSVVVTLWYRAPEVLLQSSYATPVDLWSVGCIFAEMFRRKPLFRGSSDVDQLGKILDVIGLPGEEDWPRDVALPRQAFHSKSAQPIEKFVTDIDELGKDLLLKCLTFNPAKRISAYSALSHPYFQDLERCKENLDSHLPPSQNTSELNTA
UniProt P24385, whole entry partner: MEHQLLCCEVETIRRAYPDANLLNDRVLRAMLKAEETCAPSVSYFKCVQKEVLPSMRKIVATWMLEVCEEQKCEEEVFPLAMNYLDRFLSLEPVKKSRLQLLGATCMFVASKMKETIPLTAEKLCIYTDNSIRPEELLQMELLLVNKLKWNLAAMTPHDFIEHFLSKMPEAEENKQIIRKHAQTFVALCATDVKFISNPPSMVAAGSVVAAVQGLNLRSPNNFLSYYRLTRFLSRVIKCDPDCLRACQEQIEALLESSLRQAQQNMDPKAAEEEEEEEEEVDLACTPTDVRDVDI
UniProt P30281, whole entry partner: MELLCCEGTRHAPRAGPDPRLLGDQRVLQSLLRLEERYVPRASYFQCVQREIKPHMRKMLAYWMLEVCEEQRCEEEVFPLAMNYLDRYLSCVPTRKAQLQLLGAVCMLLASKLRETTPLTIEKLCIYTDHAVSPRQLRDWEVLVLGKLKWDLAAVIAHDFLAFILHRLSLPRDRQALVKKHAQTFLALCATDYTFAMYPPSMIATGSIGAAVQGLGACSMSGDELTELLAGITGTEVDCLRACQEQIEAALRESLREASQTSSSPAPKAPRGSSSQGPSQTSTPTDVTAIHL

IC50 ([1]; tested form: HCl): 0.033 µM
IC50 ([2]; tested form: HCl): 0.065 µM
Structure (SMILES): CCCCNCCc1ccnc(NC(=O)Nc2cccc3c2C2CCCN2C3=O)c1 (single isomer, unassigned)

IC50 [3]: 0.022 µM
Structure (SMILES): O=C(Nc1cc(CNC2Cc3ccc(Cl)cc3C2)[nH]n1)Nc1cccc2c1C1CCCN1C2=O (racemic)

IC50 [1]: 0.019 µM
IC50 [2]: 0.013 µM
IC50 [4]: 0.061 µM
IC50 [5]: 0.1 µM
IC50 [6]: 0.013 µM
Structure (SMILES): C=C(O)c1ccc2n1C(=O)c1cccc(NC(=O)Nc3ccccn3)c1-2

Source: patent US6958333B1, “Biarylurea derivatives” (Banyu Pharmaceutical Co., Ltd., priority 1999, dated 2005)
